Reference: PubChem BioAssay AID1272365 (Small Molecule Screening Facility, UW Madison, 2020)
Where “and” joins values, the source holds several entries; their conditions need not be identical. Equal entries are not always repeated. This is a selection; strong and weak results do not stand in their true shares. Calls of active or inactive are those of the source. No stated cut-off is given here; in the data, active means inhibition mostly above about 37% (no sharp cut-off); inactive means mostly below about 20%.

tested on: PriA–SSB C-terminal tail interaction (Klebsiella pneumoniae); assay: blocks PriA binding to SSB C-terminal tail, primary screen, biochemical, AlphaScreen (AID 1272365); settings: AlphaScreen SSBct-PriA binding, biotinylated peptide; at 33 µM; active compounds read high;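 further: plate controls were negative control peptide for no effect and reference peptide for full effect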

| Structure (SMILES) | inhibition |
| --- | --- |
| Nc1cccc([As](=O)(O)c2ccccc2)c1 | inactive: 14.1% |
| O=c1[nH]c(SCC(Cl)CSc2ccccc2)nc2sc3c(c12)CCC3 (stereo not drawn) | inactive: -5% |
| Cc1nn(-c2ccccc2)c2c1P(=O)(N1CCOCC1)N(C)C(c1ccccc1)=N2 (stereo not drawn) | inactive: -8.38% |
| CC1CCC(C(C)C)C(OP(=O)(Nc2ccccn2)c2ccccc2)C1 (stereo not drawn) | inactive: 5.85% |
| Cc1ccc(C(=O)OC2CN3CCC2CC3)cc1 (stereo not drawn) | inactive: -6.94% |
| O=C(/C=C/c1ccccc1)OC1CN2CCC1CC2 (stereo not drawn) | inactive: -4.28% |
| CCCC1OP(=O)(Nc2ccccc2)OCC1CC (stereo not drawn) | inactive: -5.67% |
| CN(C)C1(CNC(=O)c2ccc(S(C)(=O)=O)cc2)CCCCC1 | inactive: -3.64% |
| Cc1cc(C)c(C#N)c(SCC(Br)CBr)n1 (stereo not drawn) | inactive: 17% |
| CCOC(=O)Nc1cccc([As](=O)(O)O)c1 | inactive: 8.61% |
| O=[N+]([O-])c1ccc(Nc2ccc(Oc3ccc([N+](=O)[O-])cc3[N+](=O)[O-])cc2)c([N+](=O)[O-])c1 | inactive: -18.4% |
| O=P(Nc1ccccn1)(c1cccc2ccccc12)c1cccc2ccccc12 | inactive: -11.7% |
| Cc1cc(SC(NC=O)C(Cl)(Cl)Cl)ncn1 (stereo not drawn) | inactive: 2.39% |
| Cc1sc2nc3n(c(=O)c2c1C)CC(CI)S3 (stereo not drawn) | inactive: 5% |
| CC1CCNP(=O)(N(CCCl)CCCl)O1 (stereo not drawn) | inactive: -7.04% |
| CCOC(=O)Nc1ccc([As](=O)(O)O)c(O)c1 | inactive: 1.68% |
| CCCCOc1ccc(C(=O)NCC2(N3CCCCC3)CCCCC2)cc1OC | inactive: -14.8% |
| COc1ccc(NC(=NP(=O)(N2CCOCC2)N2CCOCC2)N2CCOCC2)cc1 | inactive: -9.6% and inactive: -5% |
| Cc1cc(SC(NC(=O)c2ccccc2)C(Cl)(Cl)Cl)nc(C(C)C)n1 (stereo not drawn) | inactive: -4.3% |
| CCOC(=O)c1ccc(NC(=O)C(C)(CCl)SC)cc1 (stereo not drawn) | inactive: -1.15% |
| O=C(OC1CN2CCC1CC2)c1cccc([N+](=O)[O-])c1 (stereo not drawn) | inactive: -10.7% |
| CCC(C)N(CC(C)C)C(=S)SC(NC(C)=O)C(Cl)(Cl)Cl (stereo not drawn) | inactive: 10.6% |
| COP1(=S)c2c(C)nn(CCC#N)c2N=C(c2ccc(F)cc2)N1C (stereo not drawn) | inactive: 2.15% |
| O=C(COc1ccccc1)OC1CN2CCC1CC2 (stereo not drawn) | inactive: -18.5% |

| Structure (SMILES) | inhibition |
| --- | --- |
| O=C(Nc1ccncc1[N+](=O)[O-])c1ccc([N+](=O)[O-])cc1[N+](=O)[O-] | inactive: -6.42% |
| O=[N+]([O-])c1cc(Oc2ccc([N+](=O)[O-])cc2C(F)(F)F)cc([N+](=O)[O-])c1 | inactive: -4.3% |
| O=P(N=c1nc(-c2ccccc2)n(-c2ccccc2)s1)(N1CCOCC1)N1CCOCC1 | inactive: -7% |
| O=C(OC1CN2CCC1CC2)C12CC3CC(CC(C3)C1)C2 (stereo not drawn) | inactive: -12.7% |
| Cc1cc(=O)[nH]c(N[N+](=O)[O-])n1 | inactive: 1.39% |
| Cc1c2c(nc3ccccc13)SC(C(Cl)Cl)C2 (stereo not drawn) | inactive: -38.2% |
| COc1ccc2nc(NP(=O)(c3ccccc3)c3ccccc3)sc2c1 | inactive: -10.3% |
| COc1cc(I)ccc1[As](=O)(O)O | inactive: -2% |
| O=P1(N(CCCl)CCCl)Nc2ccccc2N1 | inactive: -6.02% |
| O=P1(N(CCCl)CCCl)OCCCN1CCCl (stereo not drawn) | inactive: -14.4% |
| COC1=NP(OC)(OC)=Nc2c1sc(=NC(=Nc1ccccc1)c1ccc(OC)cc1)n2-c1ccccc1 | inactive: -12% |
| CC(C)c1ccc(OP(=O)(Nc2ccccn2)Oc2ccccc2F)cc1 (stereo not drawn) | inactive: 3.18% |
| COC(=O)C1(C)COP(=O)(N2CCCCCC2)OC1 (stereo not drawn) | inactive: -2.98% |
| ClCCSc1nnc(-c2cccnc2)o1 | inactive: -13.4% |
| CCN(CC)C(=S)SC(NC=O)C(Cl)(Cl)Cl (stereo not drawn) | inactive: 2.6% |
| O=C(OC1CN2CCC1CC2)c1cccc2[nH]cnc12 (stereo not drawn) | inactive: -9.31% |
| CC(C)NC(=O)NP(=O)(Oc1ccccc1)Oc1ccccc1 | inactive: 4.51% |
| O=[N+]([O-])c1cc([N+](=O)[O-])c(-c2ccn[nH]2)s1 | inactive: -2.13% |
| O=[As](O)(c1ccc(O)cc1)c1ccccc1O | inactive: 3.95% |
| C[As](=O)(O)c1cccc(C(=O)O)c1 | inactive: 10.2% |
| COc1cc(C(=O)NCC2(N3CCOCC3)CCCCC2)ccc1OCC(C)C | inactive: -5.57% |
| O=[N+]([O-])c1ccc(-c2cc([N+](=O)[O-])c(O)c([N+](=O)[O-])c2)cc1 | inactive: 3.57% |
| Cc1ccc2nc3c(c(C)c2c1)CC(C(Cl)Cl)S3 (stereo not drawn) | inactive: -4.69% |
| Cc1ccc(OP(=O)(Nc2ccc([N+](=O)[O-])cn2)Oc2ccc(C)cc2)cc1 | inactive: -6.03% |
